# Measured affinities in a library of Ab-14 heavy chain variants

Data: MIT Lincoln Laboratory AlphaSeq set, Engelhart et al. 2022, doi:10.1038/s41597-022-01779-4, as distributed in FLAb.

Binding partner: SARS-CoV-2 spike HR2 peptide, sequence PDVDLGDISGINAS.

Parent scFv Ab-14: VH joined to VL by three GGGGS repeats. Changes lie in the heavy chain CDRs alone.
VH: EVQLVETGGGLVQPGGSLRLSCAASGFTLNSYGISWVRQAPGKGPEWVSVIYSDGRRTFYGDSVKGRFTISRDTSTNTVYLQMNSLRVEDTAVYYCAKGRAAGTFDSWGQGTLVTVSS
VL: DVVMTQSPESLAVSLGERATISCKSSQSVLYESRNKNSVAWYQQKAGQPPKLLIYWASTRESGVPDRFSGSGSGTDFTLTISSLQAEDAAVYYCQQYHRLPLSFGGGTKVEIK

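The parent was found by panning a naive human phage display library on the peptide. AAYL49 was designed without a model: most single CDR substitutions and a random sample of double and triple ones. The assay is AlphaSeq: two haploid yeast populations carry antibody and antigen on their surface. Mating (16 h, 30 °C) was followed by selection of diploids and sequencing of their barcodes. The ratio of observed to expected reads was calibrated, replicate by replicate, on BCL2-family standards whose Kd was known from biolayer interferometry. Mating was done three times.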

Substitutions are numbered in sequence along the VH above, starting at 1 (not Kabat).
This list gathers variants with a substitution at G103 (VH, numbered from residue 1).
Each Kd is an estimate from the mating assay, the geometric mean of the replicates in which the pair was seen; lower is stronger.
"nd" means that the variant was in the library but no mating with the target was seen in any replicate; the authors take this as a sign of poor binding, and no number exists.
Three control strains display no target. For library AAYL49, 15% of the pairings with them gave a signal, with a median of 11 µM and one signal in twenty below 680 nM, so weak values seen in few replicates may be background.

The variant Y60L+K65F+G103P gave nd (0 of 3 replicates). With G26L+K65T+G103R the result was nd (0 of 3 replicates). The variant G33P+K65F+G103Q gave 150 µM (1 of 3 replicates). The variant L29F+A101K+G103Q showed 85 µM (1 of 3 replicates). With T58K+G103L+S107W the result was nd (0 of 3 replicates). The variant G103E gave nd (0 of 3 replicates).

For L29P+A102D+G103T, the assay gave 240 nM (2 of 3 replicates). The variant S35I+G103Y showed 130 µM (3 of 3 replicates). The variant I51M+K65W+G103I gave nd (0 of 3 replicates). The variant I34K+G99S+G103A showed nd (0 of 3 replicates). The variant G103Y+T104F gave 380 µM (1 of 3 replicates). With F27L+G103L+S107G the result was 290 nM (3 of 3 replicates).

The variant N30C+R57C+G103W gave nd (0 of 3 replicates). With G103S the result was 9.2 nM (3 of 3 replicates). The variant N30Y+R57T+G103D gave 69 µM (3 of 3 replicates). For I34G+G55P+G103L, the assay gave 260 µM (2 of 3 replicates). With Y52I+R100Y+G103Q the result was nd (0 of 3 replicates). With N30Y+S53R+G103R the result was nd (0 of 3 replicates).

For Y32F+T58G+G103T, the assay gave 260 µM (2 of 3 replicates). The variant F59S+K65S+G103K showed nd (0 of 3 replicates). For T58L+G103R+T104F, the assay gave nd (0 of 3 replicates). For Y32V+I51C+G103I, the assay gave nd (0 of 3 replicates). With F59Y+G103Q the result was 260 µM (1 of 3 replicates). The variant G103D+D106H showed 1.9 µM (2 of 3 replicates).

With G55Y+Y60C+G103D the result was nd (0 of 3 replicates). With F27M+T28Y+G103M the result was 4.1 µM (1 of 3 replicates). The variant G99V+G103A showed 3.4 nM (3 of 3 replicates). The variant I51K+T58S+G103P showed 250 µM (1 of 3 replicates). With F27T+V64T+G103A the result was nd (0 of 3 replicates). For T28L+G55S+G103V, the assay gave nd (0 of 3 replicates).

For L29E+N30S+G103N, the assay gave 34 nM (3 of 3 replicates). With T28W+N30G+G103Q the result was nd (0 of 3 replicates). The variant S35G+V50S+G103T gave nd (0 of 3 replicates). With G103N the result was 13 nM (3 of 3 replicates). For F27W+R56K+G103W, the assay gave 16 nM (3 of 3 replicates). The variant F27W+G103W showed nd (0 of 3 replicates).

The variant S31C+G103C+T104Q gave 840 nM (3 of 3 replicates). With G33M+Y52A+G103M the result was nd (0 of 3 replicates). For G26E+Y32N+G103N, the assay gave 690 µM (2 of 3 replicates). With Y60R+G61R+G103N the result was nd (0 of 3 replicates). For Y32W+V50I+G103V, the assay gave nd (0 of 3 replicates). The variant I34N+A102W+G103H showed nd (0 of 3 replicates).

The variant K65D+R100Y+G103N gave 13 µM (2 of 3 replicates). With N30Y+G103A the result was 2.7 µM (1 of 3 replicates). For I34D+G55C+G103H, the assay gave nd (0 of 3 replicates). The variant Y32R+K65R+G103Y showed nd (0 of 3 replicates). The variant G26C+Y52P+G103Y gave nd (0 of 3 replicates). For F59K+G103E+F105A, the assay gave 7.0 µM (2 of 3 replicates).

With G103D+T104V the result was nd (0 of 3 replicates).

The first 4 entries again:

changes,Kd,seen in
Y60L+K65F+G103P,nd,0 of 3
G26L+K65T+G103R,nd,0 of 3
G33P+K65F+G103Q,150 µM,1 of 3
L29F+A101K+G103Q,85 µM,1 of 3